The results in this text go back to ChEMBL document CHEMBL1135688, “Pharmacophore model of drugs involved in P-glycoprotein multidrug resistance: explanation of structural variety (hypothesis)” (J Med Chem, 2002).

Chains of the proteins cited; added tags and fusions are not shown.
UniProt P08183, whole entry: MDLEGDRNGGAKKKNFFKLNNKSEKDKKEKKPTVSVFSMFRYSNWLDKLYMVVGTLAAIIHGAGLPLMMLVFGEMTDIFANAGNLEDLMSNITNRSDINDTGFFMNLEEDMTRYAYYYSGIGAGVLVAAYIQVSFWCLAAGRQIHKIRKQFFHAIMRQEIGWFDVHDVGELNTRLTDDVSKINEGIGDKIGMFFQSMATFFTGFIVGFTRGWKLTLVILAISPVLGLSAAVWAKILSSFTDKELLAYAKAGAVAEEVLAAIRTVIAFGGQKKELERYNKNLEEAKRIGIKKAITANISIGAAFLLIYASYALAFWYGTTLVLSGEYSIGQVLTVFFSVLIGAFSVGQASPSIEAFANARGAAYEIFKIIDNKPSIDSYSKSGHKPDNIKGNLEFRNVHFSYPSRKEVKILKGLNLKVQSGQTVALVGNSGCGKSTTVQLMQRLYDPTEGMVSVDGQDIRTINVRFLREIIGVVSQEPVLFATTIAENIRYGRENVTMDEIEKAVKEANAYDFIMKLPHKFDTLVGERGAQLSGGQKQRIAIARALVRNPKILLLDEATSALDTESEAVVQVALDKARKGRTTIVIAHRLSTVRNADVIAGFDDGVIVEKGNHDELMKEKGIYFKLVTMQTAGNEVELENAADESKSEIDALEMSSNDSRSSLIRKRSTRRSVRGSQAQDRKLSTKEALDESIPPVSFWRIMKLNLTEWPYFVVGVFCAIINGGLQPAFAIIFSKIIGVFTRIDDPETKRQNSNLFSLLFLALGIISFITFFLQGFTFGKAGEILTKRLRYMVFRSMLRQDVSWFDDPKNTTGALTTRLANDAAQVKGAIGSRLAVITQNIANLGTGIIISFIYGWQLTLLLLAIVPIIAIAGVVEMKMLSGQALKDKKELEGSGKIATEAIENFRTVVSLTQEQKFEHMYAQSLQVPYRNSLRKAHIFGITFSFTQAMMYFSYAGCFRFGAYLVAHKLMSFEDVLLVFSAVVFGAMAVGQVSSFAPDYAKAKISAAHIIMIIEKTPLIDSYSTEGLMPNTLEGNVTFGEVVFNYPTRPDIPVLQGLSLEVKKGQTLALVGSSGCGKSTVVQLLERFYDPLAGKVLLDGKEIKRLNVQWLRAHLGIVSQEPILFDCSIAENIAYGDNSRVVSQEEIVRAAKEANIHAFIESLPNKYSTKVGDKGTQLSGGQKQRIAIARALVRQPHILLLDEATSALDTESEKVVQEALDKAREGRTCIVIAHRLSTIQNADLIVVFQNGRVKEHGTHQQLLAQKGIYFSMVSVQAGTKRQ

What is called Ki is the equilibrium dissociation constant of an inhibitor or competing ligand from its target. Higher therefore signals lower affinity.

For assay [1], the target named is T1, ATP-dependent translocase ABCB1 (Homo sapiens, UniProt P08183). Kind of assay: High affinity constant at binding site of human P-Glycoprotein (P-gp) in two-affinity model.
Assay [2] concerns the target T1, ATP-dependent translocase ABCB1.

Turning to `CN(C)CCCN1c2ccccc2Sc2ccc(Cl)cc21` [CHLORPROMAZINE], in assay [1], the Ki came to 0.6 µM.
In turn, `CN1CCN(CCCN2c3ccccc3Sc3ccc(C(F)(F)F)cc32)CC1` [TRIFLUOPERAZINE] returned a Ki in assay [2] of 6.5 µM.
